# Data published in patent publication US7514452B2, “2-furancarboxylic acid hydrazides and pharmaceutical compositions containing the same” (Dainippon Pharmaceutical Co., Ltd, priority 2002, dated 2009).
# Chains of the proteins cited; added tags and fusions are not shown. Residues count along the entry.
# UniProt Q61606, 27-485 limits assumed: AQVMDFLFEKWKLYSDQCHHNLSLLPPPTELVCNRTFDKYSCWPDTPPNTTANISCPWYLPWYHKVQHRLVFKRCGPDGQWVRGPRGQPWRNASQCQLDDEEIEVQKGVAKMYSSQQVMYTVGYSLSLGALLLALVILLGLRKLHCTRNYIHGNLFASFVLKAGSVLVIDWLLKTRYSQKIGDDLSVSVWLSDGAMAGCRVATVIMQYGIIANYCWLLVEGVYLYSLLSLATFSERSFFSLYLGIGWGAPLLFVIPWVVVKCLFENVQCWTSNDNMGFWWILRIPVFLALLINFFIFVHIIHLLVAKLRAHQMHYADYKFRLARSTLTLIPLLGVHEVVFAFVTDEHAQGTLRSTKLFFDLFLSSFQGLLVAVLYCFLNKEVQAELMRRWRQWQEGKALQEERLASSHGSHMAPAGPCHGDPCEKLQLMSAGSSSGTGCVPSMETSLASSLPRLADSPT
# UniProt P30082, 27-485 limits assumed: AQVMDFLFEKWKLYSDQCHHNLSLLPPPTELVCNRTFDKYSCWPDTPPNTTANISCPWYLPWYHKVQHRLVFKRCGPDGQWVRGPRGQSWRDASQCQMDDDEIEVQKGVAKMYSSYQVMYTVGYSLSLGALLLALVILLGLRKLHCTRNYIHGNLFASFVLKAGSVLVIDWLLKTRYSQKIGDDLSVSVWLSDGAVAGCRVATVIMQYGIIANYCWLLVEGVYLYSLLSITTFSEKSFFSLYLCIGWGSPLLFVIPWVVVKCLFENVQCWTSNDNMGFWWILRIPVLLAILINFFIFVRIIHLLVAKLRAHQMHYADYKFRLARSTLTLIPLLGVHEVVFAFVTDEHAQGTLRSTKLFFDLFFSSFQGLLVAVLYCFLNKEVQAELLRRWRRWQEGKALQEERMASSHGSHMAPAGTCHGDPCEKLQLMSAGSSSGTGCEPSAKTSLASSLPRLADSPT
# What was measured:
# glucagon receptor [1] = biological target: glucagon receptor (Mus musculus, UniProt Q61606); experiment: Experiment for glucagon binding inhibition, mouse hepatic membrane (125I-glucagon); conditions: read-out: Glucagon binding inhibitory activity IC50 (nM) Mouse; male ddY mouse hepatic membrane, 125I-glucagon 50 pM, 25° C. for 30 minutes
# Protocol: (§1) The preparation of membrane from mouse and rat livers was carried out according to the method described in Bioorg. Med. Chem. Lett. 1992, 12, 915-918 in this experiment and ^125I-glucagon binding activity was measured with these membranes as glucagon receptor's samples. Livers were removed from male SD rats (about 250 g body weight per rat) and male ddY mice (about 30 g body weight per mouse). […] The homogenate was centrifuged for 15 minutes at 30,000×g. […] The precipitaion thus obtained was used as a hepatic membrane sample. […] The mixture was incubated at 25° C. for 30 minutes. […] The filter was washed 3 times with 50 mM Tris-HCl buffer (pH 7.2), and the radioactivity of the filter was measured by a γ counter (ARC-360, Aloka Co., Ltd.). […] Each experiment was carried out in duplicate. […] The concentration at 50% inhibition of binding (IC50) was calculated using a pseudo Hill plot.
# glucagon receptor [2] = biological target: glucagon receptor (Rattus norvegicus, UniProt P30082); experiment: Experiment for glucagon binding inhibition, rat hepatic membrane (125I-glucagon); conditions: read-out: Glucagon binding inhibitory activity IC50 (nM) Rat; male SD rat hepatic membrane, 125I-glucagon 50 pM, 25° C. for 30 minutes
# Protocol: as §1
SMILES,IC50 (glucagon receptor [1]),IC50 (glucagon receptor [2])
C=C(c1ccccc1)c1cccc(-c2ccoc2C(=O)NNC(=O)c2ccc(O)c([N+](=O)[O-])c2)c1,210 nM,160 nM
CCCCCCOc1ccc(-c2ccoc2C(=O)NNC(=O)c2ccc(O)c([N+](=O)[O-])c2)cc1,20 nM,15 nM
CC(C)Cc1cccc(-c2ccoc2C(=O)NNC(=O)c2ccc(O)c([N+](=O)[O-])c2)c1,110 nM,110 nM
O=C(NNC(=O)c1occc1-c1cccc(C2CCCCC2)c1)c1ccc(O)c([N+](=O)[O-])c1,55 nM,24 nM
